Rows were chosen to be rich in hits. Some 1.9% of all compounds tested hit in one or more screens of this group.
PglD DTNB: inhibitors of Campylobacter jejuni PglD acetyltransferase; AID 602405; inhibition, % at 12.5 µM; actives 0.098% (n = 360,000); purified PglD enzyme, DTNB colorimetric CoA detection; in the data active = inhibition above about 16%, passing the limit was not always enough
ERp5 block: inhibitors of human ERp5; ERp5 insulin aggregation, absorbance 650 nm, 90 min; inhibition, % at 9.99 µM; actives 0.05% (n = 350,000); AID 651711;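 active = mean replicate inhibition above about 25%, with every replicate also reaching it, limit read from the data, passing the limit was not always enough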
UUG fidelity: alters start codon recognition fidelity in yeast. S. cerevisiae UUG-firefly luciferase reporter, luminescence/redox ratio. 350,000 tested, 0.13% active. activity score, % at 18.7 µM. AID 602363;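 active means replicate mean at a twofold rise or more, about +100% in these data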;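 further: firefly luciferase made from a UUG start codon reports start codon fidelity; reporter light over untreated wells divided by growth signal over untreated wells; some hits fall short of that in this replicate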
PDI turbidity: blocks human protein disulfide isomerase activity. AID 588391. PDI insulin aggregation turbidity, A650, 90 min. P07237. actives 0.052% (n = 350,000). inhibition, % at 10 µM;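 active = mean inhibition across replicates of 30% or more, whatever share of single replicates reach that level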
ARNT-TACC3 inh: ARNT/TACC3 interaction disruption. Q9Y6A5. AlphaScreen His-ARNT PAS-B/GST-TACC3 binding, luminescence; TACC3 fragment carries E629A point mutation. inhibition, % at 9.99 µM. actives 0.66% (n = 390,000). AID 623870;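 active = mean inhibition of replicates at least 50% and at least half of replicates each reaching 50%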;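 also: 0% = complete ARNT plus TACC3 wells and 100% = ARNT alone without TACC3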
FGF22 binding: FGF22 (human) thermal shift binding. recombinant FGF22 thermal shift, SYPRO orange fluorescence; percent of sucrose octasulfate shift, DMSO zero. activity (Tm shift, normalised), % at 9.99 µM. actives 1.5% (n = 340,000). AID 651658;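 active = mean Tm shift, scaled 0 neutral to 100 positive control, at about 1.3% or above, every replicate too, limit read from the data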
Numbers without * were called inactive; · = not tested or not shown.

Assay codes – A = PglD DTNB; B = ERp5 block; C = UUG fidelity; D = PDI turbidity; E = ARNT-TACC3 inh; F = FGF22 binding
1	COc1ccc(NC(=O)Nc2ccc3c(c2)C(=O)N([C@H](C)CO)C[C@H](C)[C@@H](CN(C)C(=O)C2CCCCC2)OCCCC[C@H](C)O3)cc1
  A = 0	B = 30*	C = -5	D = ·	E = -32	F = 0
2	C[C@@H]1CCCCO[C@@H](CN(C)C(=O)Nc2cccc3ccccc23)[C@H](C)CN([C@H](C)CO)C(=O)c2cc(NS(=O)(=O)c3ccc(Cl)cc3)ccc2O1
  A = 4	B = -2	C = -9	D = ·	E = 12	F = 2.1*
3	C[C@@H]1CCCCO[C@H](CN(C)C(=O)Nc2cccc3ccccc23)[C@@H](C)CN([C@H](C)CO)C(=O)c2cc(NC(=O)Nc3cccc4ccccc34)ccc2O1
  A = -3	B = -1	C = -9	D = ·	E = -1	F = 1.6*
4	C[C@@H]1CCCCO[C@H](CN(C)C(=O)Nc2cccc3ccccc23)[C@H](C)CN([C@@H](C)CO)C(=O)c2cc(NC(=O)Nc3cccc4ccccc34)ccc2O1
  A = -3	B = 0	C = -12	D = ·	E = 3	F = 0
5	C[C@H](CO)N1C[C@H](C)[C@@H](CN(C)C(=O)Nc2cccc3ccccc23)OCCCC[C@H](C)Oc2ccc(NS(=O)(=O)c3ccc(Cl)cc3)cc2C1=O
  A = 1	B = 5	C = -18	D = ·	E = 7	F = 0
6	O=C(C1CCOCC1)N1C[C@@H]2[C@H](c3ccccc31)[C@@H](CO)N2C(=O)Cc1ccccc1
  A = 7	B = 0	C = -4	D = ·	E = -11	F = 0
7	O=C(O)C[C@@H]1C[C@@H]2c3cc(NS(=O)(=O)c4ccc(F)cc4)ccc3O[C@@H]2[C@H](CO)O1
  A = ·	B = 5	C = ·	D = ·	E = ·	F = ·
8	C[C@@H]1CCCCO[C@H](CN(C)C(=O)C2CCCCC2)[C@@H](C)CN([C@H](C)CO)C(=O)c2cc(NC(=O)Nc3cccc4ccccc34)ccc2O1
  A = -2	B = 2	C = 3	D = ·	E = 6	F = 1.3*
9	C[C@@H]1CCCCO[C@H](CN(C)C(=O)Nc2ccc3c(c2)OCO3)[C@H](C)CN([C@@H](C)CO)C(=O)c2cc(NC(=O)CCCN(C)C)ccc2O1
  A = -1	B = -1	C = 9	D = ·	E = 45*	F = -1
10	C[C@@H]1CCCCO[C@@H](CN(C)C(=O)Nc2ccc(F)cc2)[C@@H](C)CN([C@@H](C)CO)C(=O)c2cc(NC(=O)CCCN(C)C)ccc2O1
  A = ·	B = ·	C = ·	D = ·	E = ·	F = 0
11	CCn1nc(C(=O)NNS(=O)(=O)c2ccc(C)cc2)c2ccccc2c1=O
  A = -7	B = 0	C = -10	D = -81	E = 68*	F = 0
12	CC(=O)NC(c1ccccc1)c1cc([N+](=O)[O-])c2cccnc2c1O (centres undefined)
  A = 5	B = 1	C = -32	D = -12	E = 42	F = 41
13	CCC(=O)NC(c1cccs1)c1cc([N+](=O)[O-])c2cccnc2c1O (centres undefined)
  A = 1	B = 3	C = -14	D = 1	E = 71*	F = 0
14	O=C(C[C@@H]1C[C@H]2c3cc(NC(=O)Nc4ccccc4)ccc3O[C@H]2[C@@H](CO)O1)NCc1ccccn1
  A = 1	B = 2	C = -5	D = ·	E = 3	F = ·
15	CC(C)CC#Cc1cnc2c(c1)C(=O)N([C@H](C)CO)C[C@H](C)[C@H](CN(C)Cc1ccccc1F)O2
  A = -1	B = 0	C = -8	D = ·	E = 1	F = 0
16	Cc1cc(/C=C2\NC(=O)NC2=O)c(C)n1-c1ccc(N2CCOCC2)cc1
  A = 11	B = -3	C = -11	D = -6	E = -2	F = 0
17	Cc1cc(/C=C2/NC(=O)NC2=O)c(C)n1-c1ccc(N2CCOCC2)cc1
  A = 0	B = -3	C = -10	D = 18	E = 9	F = 43*
18	CS(=O)(=O)N1CCCCN2[C@@H](CO)[C@H](c3ccc(C4=CCCC4)cc3)[C@@H]2C1
  A = -3	B = 8	C = -2	D = ·	E = -5	F = 0
19	COCC#Cc1cnc2c(c1)C(=O)N([C@@H](C)CO)C[C@@H](C)[C@H](CN(C)C(=O)c1cccc(F)c1)O2
  A = 1	B = 2	C = 5	D = ·	E = 19	F = 0
20	CN(C)S(=O)(=O)c1cccc(C(=O)OCC(=O)NCc2ccc3c(c2)OCO3)c1
  A = -1	B = 0	C = -16	D = 2	E = -4	F = 43*
21	CN(C)S(=O)(=O)c1cccc(NC(=O)COC(=O)c2ccc([N+](=O)[O-])o2)c1
  A = ·	B = ·	C = ·	D = 8	E = 64*	F = ·
22	O=C(COC(=O)c1ccc([N+](=O)[O-])o1)Nc1cccc(S(=O)(=O)N2CCOCC2)c1
  A = -4	B = ·	C = 16	D = -12	E = 10	F = ·

One compound at a time, as listed above. Order of values: PglD DTNB | ERp5 block | UUG fidelity | PDI turbidity | ARNT-TACC3 inh | FGF22 binding
Results for `CCn1nc(C(=O)NNS(=O)(=O)c2ccc(C)cc2)c2ccccc2c1=O` = -7 | 0 | -10 | -81 | 68* | 0
Results for `Cc1cc(/C=C2/NC(=O)NC2=O)c(C)n1-c1ccc(N2CCOCC2)cc1` = 0 | -3 | -10 | 18 | 9 | 43*

Source: PubChem (Broad Institute)
